According to patent publication US20100048677A1 (NEW YORK BLOOD CENTER, published 2010):

biological target: αIIb (INTEGRIN, ALPHA 2B; PLATELET GLYCOPROTEIN IIB OF IIB/IIIA COMPLEX, ANTIGEN CD41) (human) (UniProt P08514); experiment: αIIb complexes captured, mass spectrometry; No. Expts 1

Row | #Peptides [peptides] | Substance
1 | 10 | TU …ON ELONGATION FACTOR, MITOCHONDRIAL (from UniProt P49411 47-455)
2 | 3 | RIBOSOMAL PROTEIN, LARGE, P0 (from UniProt P05388 1-317)
3 | 7 | FAM175B (UNKNOWN PROTEIN) (from UniProt Q15018 1-415)
4 | 10 | GOLGI ASSOCIATED PDZ AND COILED-COIL MOTIF CONTAINING (from UniProt Q9HD26 2-462)
